# Binding of CDR-mutated scFvs to a peptide of the spike HR2 region

Data: MIT Lincoln Laboratory AlphaSeq set, Li et al. 2023, doi:10.1038/s41467-023-39022-2, as distributed in FLAb.

Target peptide (SARS-CoV-2 spike, HR2 region): PDVDLGDISGINAS

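The parent was found by panning a naive human phage display library on the peptide. These sequences belong to a second round, designed from the earlier measurements on random variants of the parent. Several design methods are mixed in this list. The scFvs were displayed on barcoded MATa yeast, the peptide on MATalpha yeast. Binding brings cells together so that they mate, and sequencing counts the barcode pairs among the diploids. Read counts were normalised to the haploid input and turned into Kd by a linear fit to BCL2-family pairs of known affinity, for each replicate. There are six technical replicates.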

Parent: Ab-14, a human scFv built as VH, three GGGGS repeats, VL. Only the CDRs of the light chain vary.
VH: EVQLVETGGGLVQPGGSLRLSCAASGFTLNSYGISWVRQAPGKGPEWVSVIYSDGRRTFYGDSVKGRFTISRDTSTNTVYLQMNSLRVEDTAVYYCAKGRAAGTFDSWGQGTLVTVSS
VL: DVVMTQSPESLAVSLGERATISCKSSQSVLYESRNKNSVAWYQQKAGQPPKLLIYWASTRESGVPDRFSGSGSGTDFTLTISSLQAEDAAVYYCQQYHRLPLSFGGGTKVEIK

Positions count from residue 1 of the parent VL; S25L puts L in place of S. This list holds designs with at most six substitutions. The read-out is the apparent dissociation constant on a log10 scale (nM): the lower, the stronger. The mean shown is taken over the replicates in which the pair was detected. An entry "nd" has no value in the source: the pair was not observed among the diploids in that replicate. This suggests poor binding but is not conclusive. The authors' rule: three or more of the six replicates give a measured affinity, fewer mean a poor binder.

For S25L/S26M/V29M/L30P/W56N, the assay gave 1.24, 1.04, 1.05, 0.76, 0.88, 1.38 (mean 1.06; controls 1 of 18).
For S25E/V29M/K36Y/W56Q/Q95D, the assay gave nd, nd, nd, nd, nd, nd (controls 0 of 18).
For S25L/V29D/E32G/W56E, the assay gave -0.01, -0.10, -0.21, -0.37, -0.18, 0.05 (mean -0.14; controls 1 of 18).
For S25L/S26G/S28G/W56G/T59L, the assay gave -0.01, -0.04, 0.02, -0.05, 0.24, 0.35 (mean 0.09; controls 0 of 18).
For S26E/Q27C/S28G/W56G/S62D, the assay gave -0.05, -0.26, -0.40, -0.47, -0.43, -0.33 (mean -0.32; controls 2 of 18).
For R34H/W56M, the assay gave nd, nd, nd, nd, 2.56, nd (controls 0 of 18).
For L30I/Q95N, the assay gave nd, nd, nd, nd, nd, nd (controls 0 of 18).
For S58K/H98M, the assay gave nd, nd, nd, nd, 1.17, 1.90 (mean 1.54; controls 0 of 18).
For S25V/S26R/V29T/W56H, the assay gave 0.17, 0.13, 0.10, -0.07, -0.01, 0.18 (mean 0.09; controls 0 of 18).
For S25L/S26P/V29T/W56N/S62D, the assay gave -0.08, -0.30, -0.08, -0.41, -0.25, -0.07 (mean -0.20; controls 0 of 18).
For K24I/S25V/Y31D/W56D, the assay gave 1.26, 0.73, 0.64, 1.11, 0.89, 1.19 (mean 0.97; controls 0 of 18).
For S25L/S26P/V29N/W56Q, the assay gave 0.02, -0.04, 0.00, -0.14, -0.20, 0.02 (mean -0.06; controls 3 of 18).
For S25D/Y31G/S33Q/W56D/A57I, the assay gave 0.47, 0.41, 0.44, 0.47, 0.66, 0.42 (mean 0.48; controls 1 of 18).
For S33F/W56N, the assay gave 0.63, 0.50, 0.51, 0.83, 0.56, 0.66 (mean 0.62; controls 0 of 18).
For A40C, the assay gave nd, nd, nd, nd, nd, nd (controls 0 of 18).
For S25L/Y31M/W56H, the assay gave 0.26, 0.10, 0.01, 0.03, -0.06, 0.28 (mean 0.10; controls 0 of 18).
For S25L/S33E/S38N/W56N, the assay gave -0.02, -0.15, -0.12, -0.24, -0.29, 0.00 (mean -0.14; controls 0 of 18).
For S25L/S26P/V29G/W56H, the assay gave -0.02, -0.07, -0.25, -0.24, -0.16, 0.00 (mean -0.12; controls 0 of 18).
For S26M/V29E/L30P/S33D/W56E/E61C, the assay gave 0.46, 0.51, 0.24, 0.24, 0.34, 0.53 (mean 0.39; controls 0 of 18).
For S25L/S26W/V29Q/W56N/T59Q/E61L, the assay gave 0.01, -0.16, -0.16, -0.24, -0.24, 0.02 (mean -0.13; controls 2 of 18).
For K24H/S25Q/Q27G/W56N/A57G/S62V, the assay gave 0.45, 0.16, 0.17, 0.04, 0.20, 0.27 (mean 0.22; controls 3 of 18).
For S25L/S26E/V29I/L30N/W56N/Q96I, the assay gave 1.18, 0.85, 0.73, 1.07, 0.80, 1.24 (mean 0.98; controls 0 of 18).
For V39L/W56M/E61A/P101F/S103K, the assay gave nd, nd, nd, nd, nd, nd (controls 0 of 18).
For S25L/S26M/Q27P/V29W/L30E/W56E, the assay gave 0.69, 0.99, nd, 0.01, 1.04, nd (mean 0.68; controls 0 of 18).
For Q27L/L30D/N35M/L100A, the assay gave nd, nd, nd, nd, nd, nd (controls 0 of 18).
For N37R/H98W, the assay gave nd, 1.43, 1.68, 2.58, 2.00, 1.73 (mean 1.88; controls 0 of 18).
For S25F/R34T/N35T/K36S/W56N, the assay gave 0.38, 0.81, 0.42, 0.15, 0.36, 0.27 (mean 0.40; controls 2 of 18).
For R60T, the assay gave 1.75, nd, nd, nd, nd, nd (controls 0 of 18).
For S25F/K36S/W56N, the assay gave -0.02, -0.02, -0.12, -0.22, -0.20, -0.13 (mean -0.12; controls 3 of 18).
For K24Q/V29D/L30P/S33W/S62P/S103E, the assay gave nd, nd, nd, nd, nd, nd (controls 0 of 18).
For S25L/V29W/N35A/W56G, the assay gave -0.15, -0.03, -0.07, -0.32, 0.07, 0.07 (mean -0.07; controls 1 of 18).
For V29D/N35V/K36E/T59K, the assay gave nd, 0.90, 1.26, 0.88, 1.17, 1.59 (mean 1.16; controls 0 of 18).
For L30W/R34D/L100D, the assay gave nd, nd, nd, nd, nd, nd (controls 0 of 18).
For Q27L/R34L, the assay gave nd, 2.96, 2.23, 2.92, 2.20, 1.89 (mean 2.44; controls 2 of 18).
For W56A/Q96G/R99G, the assay gave nd, 3.03, nd, 2.36, 2.89, 2.12 (mean 2.60; controls 0 of 18).
For S25L/S26Y/V29E/W56E, the assay gave 0.21, -0.20, -0.27, -0.25, -0.24, -0.04 (mean -0.13; controls 0 of 18).
For S25Q/S26V/Q27T/T59V/L100F, the assay gave nd, nd, nd, 2.53, 2.68, nd (mean 2.60; controls 0 of 18).
For S25L/S33E/W56D/T59Q, the assay gave -0.11, -0.08, -0.36, -0.47, -0.44, -0.07 (mean -0.26; controls 1 of 18).
For S33F/N37R/W56S/T59V/H98T/L102I, the assay gave 1.60, 1.59, 1.39, 2.29, 1.45, 2.12 (mean 1.74; controls 0 of 18).
For S26Q/V29W/K36F/W56N/S62D, the assay gave -0.06, 0.01, -0.10, -0.09, -0.15, 0.15 (mean -0.04; controls 1 of 18).
For R34Q/W56A/Y97Q/R99Q, the assay gave nd, nd, nd, nd, nd, nd (controls 2 of 18).

The range of this assay differs from that of the first round, and the authors advise against merging the two. Empty control strains, which show no peptide, gave a signal in 4% of pairings with all light chain designs; the median was 2.64 and 95% of these signals were weaker than 1.59. No background was subtracted. Also given: how often the same scFv was detected with the empty control strains. The parent sequence was in this pool as ten entries: three were never detected, three once, and four in most replicates, with averages from 0.34 to 2.37.